# Antibody variant affinities, Ab-14 light chain, assay B

Antigen: PDVDLGDISGINAS, a 14-residue peptide of the SARS-CoV-2 spike HR2 region.

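The starting antibody came from a phage panning campaign against this peptide. The variants were designed computationally from a first round of random CDR variants and then made and measured. Several design methods are mixed in this list. Affinity was read by AlphaSeq, a pooled yeast mating assay with surface-displayed partners. Mating (16 h, 30 °C) was followed by selection of diploids and sequencing of their barcodes. Each replicate has its own calibration line, from reference interactions of the BCL2 family. Each pool was mated in six replicate cultures.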

Each scFv is VH, a 15-residue (Gly4Ser)3 linker, VL, as in the parent Ab-14, and differs from it in the CDRs of the light chain only.
VH: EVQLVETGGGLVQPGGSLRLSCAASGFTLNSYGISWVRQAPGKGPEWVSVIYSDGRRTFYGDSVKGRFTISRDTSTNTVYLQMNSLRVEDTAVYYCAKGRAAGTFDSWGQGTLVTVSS
VL: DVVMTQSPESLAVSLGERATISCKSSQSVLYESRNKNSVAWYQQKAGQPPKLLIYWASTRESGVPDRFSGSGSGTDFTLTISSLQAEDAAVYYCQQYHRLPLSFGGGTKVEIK

Variants are written as CDR1, CDR2 and CDR3 of the light chain (limits as in the source). Parent: KSSQSVLYESRNKNSVA, WASTRES, QQYHRLPLS.
Numbers give log10(Kd / nM), so 0 is 1 nM and 3 is 1 µM. Smaller is tighter.
Replicates are averaged; those with no signal do not enter the mean.
"nd" means that the variant was in the library but no mating with the target was seen in any replicate; the authors take this as a sign of poor binding, and no number exists.
The authors' rule: three or more of the six replicates give a measured affinity, fewer mean a poor binder.
The range of this assay differs from that of the first round, and the authors advise against merging the two.
As a blank, each scFv also met three strains without target: over all light chain designs, 4% of these pairings were detected, typically at 2.64 and seldom below 1.59. For each scFv, signals with the empty controls are counted beside the result.

mean log10 Kd (nM) | detected | signal with controls | CDR-L1 | CDR-L2 | CDR-L3
0.86 | 6/6 | 2/18 | TIGGTLMMGYKQRSNVA | EVSQRLN | QQYDRLPLV
nd | 0/6 | 0/18 | KLSQITGHLSVSKNNVA | EMATREN | QQYDRLPLS
-0.09 | 6/6 | 0/18 | KESQSVLFESRNKNSVA | DASTRES | QQYHRLPLS
0.58 | 6/6 | 1/18 | KSAISYLEESRNKNSVA | EASTRES | QQYHRLPLS
0.62 | 6/6 | 1/18 | KSSQSYLYESRNKNSVA | AASTRES | QQYHRLPLS
nd | 0/6 | 0/18 | MLDNCQAGYYQKNNNIA | EMNMRCY | QQYGRLPLM
-0.14 | 6/6 | 2/18 | KQSQSVGGESRNKNSVA | DASTRES | QQYHRLPLS
0.59 | 6/6 | 0/18 | KLVGSWLYESRNKNSVA | HASQRCS | QQYHRLPLS
0.41 | 6/6 | 1/18 | SMSNLGMVPSVWKNSIA | DSEHVEE | QQYSRLPLT
0.98 | 6/6 | 4/18 | MMSQVTGMELRQQNNVA | QTTTRES | QQYDRLPLV
nd | 0/6 | 0/18 | KSLQSVLYESRNKNSVA | HASTRED | QAYHRLPLS
2.55 | 1/6 | 1/18 | KSSQSVLYESRNKNSVA | SASCRES | QQTHRLPLS
-0.13 | 6/6 | 1/18 | KFSQMDLYESRNGNSVA | DASTRSS | QQYHRLPLS
0.91 | 6/6 | 2/18 | TIAQSMLYLNNLKNSIA | QAETRES | QQYHRLPIS
nd | 0/6 | 0/18 | KVSIFMLTMDNAWSSIA | NMAATRT | QQYQRLPLS
1.49 | 3/6 | 0/18 | KSSQSVLYESRNENAVA | LASTRES | QQYHWLPLS
2.42 | 4/6 | 0/18 | KLSQSVLYEWRNKNSVA | WASTREG | QQYHRLSLS
1.55 | 6/6 | 1/18 | KISMLINQTFQMSNNVA | EMVTRYK | QQYNRLPLS
1.46 | 6/6 | 2/18 | KNSQSVLYESRNKNNVA | WASTRES | QQYDRLPLS
1.91 | 6/6 | 0/18 | MIEIIPDGYMEMRSNVA | DTSLVRM | QQYARLPLM
1.67 | 6/6 | 0/18 | KIAATVLYESGAANSVA | QNSTRES | QQYHRLPLS
0.28 | 6/6 | 1/18 | MISQSFLIGMKAKNSVA | QTSTREE | QQYDRLPLI
0.02 | 6/6 | 1/18 | KLSNSVWMESRMKNQVA | EASTREM | QQYHRLPLS
nd | 0/6 | 0/18 | KSSQSALYESENKNSVA | WASTRES | QQYHRLPLS
0.98 | 6/6 | 0/18 | IVSQSVLGESRNINSVA | QTSEREY | QQYDRLPLS
1.33 | 4/6 | 1/18 | KHSQSVGYESRNKNSVA | TASTRES | QQYHRLPLS
1.90 | 2/6 | 0/18 | MLSQVMNTLTRHGNNVA | DLENRED | QQYFRLPLS
0.19 | 6/6 | 0/18 | KLQQSVLYESRNKNSVA | HASTRSS | QQYHRLPLS
0.96 | 6/6 | 1/18 | KSSQSILYESRTKNSVA | WAMTRES | QQYHRLPLS
1.64 | 6/6 | 0/18 | KSSQSWLYEMDNKNSVA | WASTRES | QQYHRLPLS
1.04 | 1/6 | 1/18 | KLSMEPLVEWNRAQAIA | DAHASYI | QQYFHLPLY
0.97 | 6/6 | 1/18 | MISDLMNYGSRNKNPIA | NASTREY | QQYHRLPLE
nd | 0/6 | 0/18 | KFQQESNNMNDIQNSVA | DESMVEY | QHYWRLPLT
1.73 | 2/6 | 0/18 | MVSQLMVWGMHARNSIA | EAQTRLN | QQYDRLPLF
-0.24 | 6/6 | 2/18 | KVDQSVLGLSRNQNAVA | AASTRES | QQYHRLPLS
1.82 | 3/6 | 0/18 | TISTSAMYESTNKNSVA | ELSTRGS | QQYERLPLS
1.03 | 6/6 | 0/18 | KSDQSVLYESRNKNSVA | RASTRES | QQYHRLPLS
0.53 | 6/6 | 0/18 | KIGMTLNTLMHQKNNVA | DLVMREK | QQYHRLPLS
0.36 | 6/6 | 1/18 | KISYMGEYFSTNHSSIA | QASTRVQ | QQYHRLPLS
-0.10 | 6/6 | 2/18 | KVSPSELYESRNKNAVA | EASTRES | QQYHRLPLS
-0.29 | 6/6 | 1/18 | KLPQSVLYESRNKNSVA | QASTRES | QQYHRLPLM
0.06 | 6/6 | 1/18 | KFSQSVLYESTTMNSVA | NASTRES | QQYHRLPLS
0.96 | 6/6 | 0/18 | MISQLYNMGQFAINSVA | QASLRND | QQYDRLPLT
0.81 | 6/6 | 0/18 | KSSQSVLYESRNKNSVA | QASERES | QQYHRLPLL
1.47 | 5/6 | 1/18 | KSSQTWLYESRNKNSVA | WASTRES | QQYHRLPLS
0.86 | 5/6 | 0/18 | QLSMWEQNGGRSYSSVA | DDDVRMA | QQYHRLPLS
0.15 | 6/6 | 1/18 | KSSPSYLIESRNKNSVA | EASTRES | QQYHRLPLS

The last 5 entries again:

CDR-L1 | CDR-L2 | CDR-L3 | mean log10 Kd (nM) | detected | signal with controls
MISQLYNMGQFAINSVA | QASLRND | QQYDRLPLT | 0.96 | 6/6 | 0/18
KSSQSVLYESRNKNSVA | QASERES | QQYHRLPLL | 0.81 | 6/6 | 0/18
KSSQTWLYESRNKNSVA | WASTRES | QQYHRLPLS | 1.47 | 5/6 | 1/18
QLSMWEQNGGRSYSSVA | DDDVRMA | QQYHRLPLS | 0.86 | 5/6 | 0/18
KSSPSYLIESRNKNSVA | EASTRES | QQYHRLPLS | 0.15 | 6/6 | 1/18

From the AlphaSeq antibody data of Li et al. 2023 (doi:10.1038/s41467-023-39022-2), copy in the FLAb collection.